Assay results as given in PubChem BioAssay AID588579 (National Center for Advancing Translational Sciences (NCATS), 2011).
The entries are a selection whose mix differs from that of the whole data set. Results filed as inconclusive are left out. Active and inactive are the calls of the source. The call rests on the fitted dose curve; in most records, active means well fitted inhibition curve with a large enough effect; inconclusive means small, poorly fitted or top-dose-only effect, or another doubt; inactive means no such curve, though single readings can be large or run the other way.

Chains of the proteins cited; added tags and fusions are not shown. Lines headed by an entry give the natural chain unless they say otherwise; changes in a name come on top.
UniProt Q9UBT6: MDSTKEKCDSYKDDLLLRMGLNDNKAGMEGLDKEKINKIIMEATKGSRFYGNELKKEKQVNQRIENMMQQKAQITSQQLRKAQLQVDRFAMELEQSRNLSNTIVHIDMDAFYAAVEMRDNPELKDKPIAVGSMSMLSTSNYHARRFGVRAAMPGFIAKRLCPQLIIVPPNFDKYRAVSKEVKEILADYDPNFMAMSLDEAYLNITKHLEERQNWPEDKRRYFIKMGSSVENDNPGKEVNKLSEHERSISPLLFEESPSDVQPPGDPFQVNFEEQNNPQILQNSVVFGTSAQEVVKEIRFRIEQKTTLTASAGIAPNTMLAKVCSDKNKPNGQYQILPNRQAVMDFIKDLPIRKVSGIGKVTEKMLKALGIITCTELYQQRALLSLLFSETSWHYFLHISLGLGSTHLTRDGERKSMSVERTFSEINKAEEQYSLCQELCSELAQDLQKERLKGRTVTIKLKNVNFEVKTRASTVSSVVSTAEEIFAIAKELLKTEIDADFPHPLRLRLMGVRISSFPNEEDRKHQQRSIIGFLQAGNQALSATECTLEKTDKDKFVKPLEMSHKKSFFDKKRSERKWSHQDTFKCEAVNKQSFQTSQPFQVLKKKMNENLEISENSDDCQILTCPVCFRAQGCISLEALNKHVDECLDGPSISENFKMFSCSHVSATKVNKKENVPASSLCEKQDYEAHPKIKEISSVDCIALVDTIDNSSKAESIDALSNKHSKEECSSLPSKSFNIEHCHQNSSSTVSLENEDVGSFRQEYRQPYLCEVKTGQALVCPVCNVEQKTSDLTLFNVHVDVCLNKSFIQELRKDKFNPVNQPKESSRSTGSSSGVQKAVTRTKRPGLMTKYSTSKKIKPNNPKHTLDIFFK

Molecular target: DNA polymerase kappa (Homo sapiens) (UniProt Q9UBT6)
Test: qHTS for Inhibitors of Polymerase Kappa
Conditions: purified Pol kappa, fluorescent DNA synthesis assay, 10 min
Procedure: The processing and repair of DNA interstrand crosslinks (ICL) in eukaryotic cells are extremely complex, potentially involving multiple DNA repair and damage tolerance pathways, including homologous recombination, nucleotide excision repair, translesion synthesis (TLS), and cell cycle checkpoints.
To that end, in a collaboration between the Oregon Health & Science University and the NIH Chemical Genomics Center a 1536-well high-throughput screen was developed. This fluorescent screen was assayed against the NIH Molecular Libraries Small Molecule Repository (MLSMR) to discover inhibitors of Pol Kappa.
NIH Chemical Genomics Center [NCGC]
NIH Molecular Libraries Probe Centers Network [MLPCN]
Assay Submitter (PI): Stephen Lloyd, Oregon Health & Science University
Three microliters of reagents (buffer in column 3 and 4 as negative control and 10 nM Pol kappa in columns 1, 2, and 5-48) were dispensed into a 1536-well black solid-bottom plate. Compounds (23 nL) were transferred via Kalypsys pin tool equipped with 1536-pin array. The plates were then incubated for 15 min at room temperature, and 1 uL substrate (50 nM final concentration) were then added to start the reaction and kinetically read twice at 0 min and 10 min on the Viewlux reader
On the % scale 0 is the no-effect control and ±100 the full control effect.

Structure (SMILES): Cc1ccc(OP(=O)(Nc2nccs2)Oc2ccc(C)cc2)cc1
- activity, negative = inhibition (at 107 µM (top of the series)): inactive: -5.92%

Structure (SMILES): COc1ccccc1OP(=O)(Nc1ccc(C)cn1)Oc1ccccc1OC
- activity, negative = inhibition (at 107 µM (top of the series)): inactive: -0.146%

Structure (SMILES): O=C(NC(Sc1ccncn1)C(Cl)(Cl)Cl)c1ccccc1 (centres undefined)
- activity, negative = inhibition (at 107 µM (top of the series)): inactive: -16.9%

Structure (SMILES): Oc1ccccc1CNc1ccccn1
- activity, negative = inhibition (at 107 µM (top of the series)): inactive: -10.8%

Structure (SMILES): CC(C)CC(=O)NC(Sc1ccc(Cl)cc1)C(Cl)(Cl)Cl (centres undefined)
- activity, negative = inhibition (at 107 µM (top of the series)): inactive: -6.76%

Structure (SMILES): COc1ccc(C2=NCC(CBr)S2)cc1 (centres undefined)
- activity, negative = inhibition (at 107 µM (top of the series)): inactive: -2.07%

Structure (SMILES): Cc1ccc(NP(=O)(Oc2ccccc2)Oc2ccccc2)nc1
- activity, negative = inhibition (at 107 µM (top of the series)): inactive: 8.13%

Structure (SMILES): CC(=O)N1C2C3N(C(C)=O)C1C1N(C(C)=O)C(C(N1C(C)=O)N3C(C)=O)N2C(C)=O
- activity, negative = inhibition (at 107 µM (top of the series)): inactive: -3.84%

Structure (SMILES): O=[N+]([O-])c1cccc2n[nH]nc12
- activity, negative = inhibition (at 107 µM (top of the series)): inactive: -10.1%

Structure (SMILES): CCN(/C(=N/P(=O)(N1CCOCC1)N1CCOCC1)N1CCOCC1)c1ccc(OC)cc1
- activity, negative = inhibition (at 107 µM (top of the series)): inactive: -2.9%

Structure (SMILES): Nc1ccc([As](=O)(O)c2ccc(N)cc2)cc1
- activity, negative = inhibition (at 107 µM (top of the series)): inactive: -1.96%

Structure (SMILES): CC1CCN(C(=O)Oc2c(Cl)cc(Cl)c3cccnc23)CC1
- activity, negative = inhibition (at 107 µM (top of the series)): inactive: -18.9%

Structure (SMILES): CC(=O)C1=CCCC2CCC1N2 (centres undefined)
- activity, negative = inhibition (at 19.4 µM (top of the series)): inactive: 4.49%
- activity, negative = inhibition (at 60.1 µM (top of the series)): inactive: -12.1%

Structure (SMILES): CN(C)C(=O)OCCc1n(C)cc[n+]1C
- activity, negative = inhibition (at 107 µM (top of the series)): inactive: -2.47%

Structure (SMILES): COc1cc([N+](=O)[O-])c([N+](=O)[O-])cc1OC
- activity, negative = inhibition (at 107 µM (top of the series)): inactive: 13%

Structure (SMILES): O=P1(N(CCCl)CCCl)OCCCS1 (centres undefined)
- activity, negative = inhibition (at 107 µM (top of the series)): inactive: -17%

Structure (SMILES): Cc1cc(C=O)ccc1N(CCCl)CCCl
- activity, negative = inhibition (at 107 µM (top of the series)): inactive: -23%

Structure (SMILES): O=C(Nc1cc([As](=O)(O)O)ccc1O)c1ccccc1
- activity, negative = inhibition (at 107 µM (top of the series)): inactive: -8.32%

Structure (SMILES): O=P(/N=c1/nc(-c2ccccc2)n(-c2ccccc2)s1)(Nc1ccccc1)Nc1ccccc1
- activity, negative = inhibition (at 107 µM (top of the series)): inactive: -10.4%

Structure (SMILES): CC(C)(C)C(=O)NC(Sc1ccncn1)C(Cl)(Cl)Cl (centres undefined)
- activity, negative = inhibition (at 107 µM (top of the series)): inactive: 12.2%

Structure (SMILES): O=C(O)CNc1ccc([As](=O)(O)O)cc1
- activity, negative = inhibition (at 107 µM (top of the series)): inactive: -6.23%

Structure (SMILES): O=[N+]([O-])c1cccc(NC2=NCC(CBr)S2)c1 (centres undefined)
- activity, negative = inhibition (at 107 µM (top of the series)): inactive: 4.19%

Structure (SMILES): COC(=O)C1(C)COP(=O)(Nc2ccccc2)OC1 (centres undefined)
- activity, negative = inhibition (at 107 µM (top of the series)): inactive: -9.69%

Structure (SMILES): CN(C)C1(CNC(=O)c2ccc(Cl)c(S(N)(=O)=O)c2)CCCCC1
- activity, negative = inhibition (at 107 µM (top of the series)): inactive: -3.99%

Structure (SMILES): O=P(Nc1ccccn1)(c1ccc(Br)cc1)c1ccc(Br)cc1
- activity, negative = inhibition (at 107 µM (top of the series)): inactive: 2.86%

Structure (SMILES): CN(C(=O)Cc1ccccc1)[C@H]1CC[C@@]2(CCCO2)C[C@@H]1N1CCCC1
- activity, negative = inhibition (at 19.4 µM (top of the series)): inactive: 3.15%

Structure (SMILES): C[C@H]1OP(=O)(Oc2ccccc2)[C@H](O)[C@H](O)[C@H]1N=[N+]=[N-] (some centres undefined)
- activity, negative = inhibition (at 107 µM (top of the series)): inactive: 13.5%

Structure (SMILES): O=P(Nc1nc2ccccc2s1)(c1ccccc1)c1ccccc1
- activity, negative = inhibition (at 107 µM (top of the series)): inactive: -14.4%

Structure (SMILES): O=[As](O)(c1ccccc1)c1ccc(O)cc1
- activity, negative = inhibition (at 107 µM (top of the series)): inactive: -3.29%

Structure (SMILES): CC(=O)NC(SC(=S)N(C)C)C(Cl)(Cl)Cl (centres undefined)
- activity, negative = inhibition (at 107 µM (top of the series)): inactive: -11.9%

Structure (SMILES): O=[N+]([O-])c1ccc(O)c(/C=N/Nc2ccc([N+](=O)[O-])cc2[N+](=O)[O-])c1
- activity, negative = inhibition (at 107 µM (top of the series)): inactive: -12.8%

Structure (SMILES): O=C(OC1CN2CCC1CC2)c1cccc(Cl)c1 (centres undefined)
- activity, negative = inhibition (at 107 µM (top of the series)): inactive: -6.85%

Structure (SMILES): Nc1ccc([As](=O)(O)c2ccc([N+](=O)[O-])cc2)cc1
- activity, negative = inhibition (at 107 µM (top of the series)): inactive: -7.94%

Structure (SMILES): O=P(Nc1nccs1)(c1ccccc1)c1ccccc1
- activity, negative = inhibition (at 107 µM (top of the series)): inactive: -3.3%

Structure (SMILES): CC(C)C(=O)NC(Sc1ccccc1)C(Cl)(Cl)Cl (centres undefined)
- activity, negative = inhibition (at 107 µM (top of the series)): inactive: -1.98%

Structure (SMILES): CCC(C)(OOC(C)(C)C)OOC(C)(C)C
- activity, negative = inhibition (at 60.1 µM (top of the series)): inactive: 16.9%

Structure (SMILES): COc1cccc([N+](=O)[O-])c1[N+](=O)[O-]
- activity, negative = inhibition (at 107 µM (top of the series)): inactive: -17%

Structure (SMILES): CCOc1ccc(C2=NCC(CBr)S2)cc1 (centres undefined)
- activity, negative = inhibition (at 107 µM (top of the series)): inactive: -22.4%

Structure (SMILES): O=P1(Nc2nc3ccc(Cl)cc3s2)COc2ccccc2O1 (centres undefined)
- activity, negative = inhibition (at 107 µM (top of the series)): inactive: -3.72%

Structure (SMILES): CC(C)(C)C(=O)NC(Sc1ccccc1)C(Cl)(Cl)Cl (centres undefined)
- activity, negative = inhibition (at 107 µM (top of the series)): inactive: -7.18%

Structure (SMILES): CCc1cc(O)c([N+](=O)[O-])c(C)c1[N+](=O)[O-]
- activity, negative = inhibition (at 107 µM (top of the series)): inactive: -13.8%

Structure (SMILES): C[C@@H]1C=CCP(=O)(Oc2ccccc2)O1 (some centres undefined)
- activity, negative = inhibition (at 107 µM (top of the series)): inactive: -15.5%

Structure (SMILES): C[C@H]1OP(=O)(Oc2ccccc2)C[C@@H]2O[C@@H]21 (some centres undefined)
- activity, negative = inhibition (at 107 µM (top of the series)): inactive: -21.5%

Structure (SMILES): Cc1ccccc1CN(C)C(=O)COC(=O)C(O)(c1ccccc1)c1ccccc1
- activity, negative = inhibition (at 107 µM (top of the series)): inactive: -21.9%

Structure (SMILES): COC(=O)C1(C)COP(=O)(NCc2ccccc2)OC1 (centres undefined)
- activity, negative = inhibition (at 107 µM (top of the series)): inactive: -10.2%

Structure (SMILES): N#C/C(=C\c1ccc(N(CCBr)CCBr)cc1)C(N)=O
- activity, negative = inhibition (at 107 µM (top of the series)): inactive: -8.23%

Structure (SMILES): CC(=O)c1ccc(N2CC2c2ccncc2)cc1 (centres undefined)
- activity, negative = inhibition (at 107 µM (top of the series)): inactive: 3.12%

Structure (SMILES): CC(=O)Nc1ccc(Oc2c([N+](=O)[O-])cc([N+](=O)[O-])cc2[N+](=O)[O-])cc1
- activity, negative = inhibition (at 107 µM (top of the series)): inactive: 3.31%

Structure (SMILES): CC(=O)Nc1ccc([As](=O)(O)O)c(O)c1
- activity, negative = inhibition (at 107 µM (top of the series)): inactive: -8.41%

Structure (SMILES): Cc1ccc(NP(=O)(Oc2cccc(C)c2)Oc2cccc(C)c2)nc1
- activity, negative = inhibition (at 107 µM (top of the series)): inactive: 2.39%

Structure (SMILES): c1ccc(-c2nn[nH]n2)c(-c2nn[nH]n2)c1
- activity, negative = inhibition (at 107 µM (top of the series)): inactive: -10.8%

Structure (SMILES): O=C(NC1CCS(=O)(=O)C1)NP(=S)(Oc1ccccc1)Oc1ccccc1 (centres undefined)
- activity, negative = inhibition (at 107 µM (top of the series)): inactive: -8.14%

Structure (SMILES): O=P1(N(CCCl)CCCl)OCCC2CCCCN21 (centres undefined)
- activity, negative = inhibition (at 107 µM (top of the series)): inactive: -0.571%

Structure (SMILES): CCC(=O)N1C2C3N(C(=O)CC)C1C1N(C(=O)CC)C(C(N1C(=O)CC)N3C(=O)CC)N2C(=O)CC
- activity, negative = inhibition (at 107 µM (top of the series)): inactive: 6.45%

Structure (SMILES): O=C(OC1CN2CCC1CC2)c1ccccc1 (centres undefined)
- activity, negative = inhibition (at 19.4 µM (top of the series)): inactive: 7.72%
- activity, negative = inhibition (at 107 µM (top of the series)): inactive: -4.55%

Structure (SMILES): CN(C(=O)Cc1ccc(Cl)c(Cl)c1)[C@@H]1CCCC[C@@H]1N1CCCC1
- activity, negative = inhibition (at 60.1 µM (top of the series)): inactive: -15%

Structure (SMILES): Cc1ccc(OP(=O)(Nc2ccccn2)Oc2ccc(C)cc2)cc1
- activity, negative = inhibition (at 107 µM (top of the series)): inactive: -7.89%

Structure (SMILES): CC(=O)NC(SC(=S)N(CC(C)C)CC(C)C)C(Cl)(Cl)Cl (centres undefined)
- activity, negative = inhibition (at 107 µM (top of the series)): inactive: -8.64%

Structure (SMILES): COC(=O)c1cc2c(s1)N=C(c1ccccc1)N(C)P2(=O)N1CCOCC1 (centres undefined)
- activity, negative = inhibition (at 107 µM (top of the series)): inactive: 0.477%

Structure (SMILES): CN(C)C(=O)Oc1noc2ccccc12
- activity, negative = inhibition (at 107 µM (top of the series)): inactive: -3.3%

Structure (SMILES): Cc1ccccc1OP(=O)(Nc1ccccn1)Oc1ccccc1C
- activity, negative = inhibition (at 107 µM (top of the series)): inactive: -2%

Structure (SMILES): CC(NC(=O)COC(=O)C(O)(c1ccccc1)c1ccccc1)c1ccccc1 (centres undefined)
- activity, negative = inhibition (at 107 µM (top of the series)): inactive: -11.1%
